Experimental data from ChEMBL document CHEMBL5329224, “Structure-Based Design and Evaluation of Reversible KRAS G13D Inhibitors” (ACS Med Chem Lett, 2024).

Test: Selectivity ratio of IC50 for inhibition of Biotinylated KRAS G13D mutant (unknown origin) to IC50 for inhibition of Biotinylated wild type KRAS (unknown origin)

Row | Compound | Ratio IC50
1 | C=C1CN2CCC[C@@]2(COc2nc3c4c(c(Cl)c(-c5nc(N)cc(C)c5C(F)(F)F)c(F)c4n2)OC[C@@H]2CN(C(=O)/C=C/c4nccc5c4CNCC5)CCN32)C1 | 6.7
2 | C=C1CN2CCC[C@@]2(COc2nc(N3CCN(C(=O)/C=C/c4cccc5c4CNCC5)C[C@@H]3C)c3cc(Cl)c(-c4nc(N)cc(C)c4C(F)(F)F)c(F)c3n2)C1 | 11
